Results: paper PMC10310857 (Nature Communications, 2023)
Like-named read-outs stand apart in the source and are kept apart here.

Sequences of proteins named here, by UniProt entry; tags and fusion partners are left off.
UniProt G2X9U7, entry or part of it: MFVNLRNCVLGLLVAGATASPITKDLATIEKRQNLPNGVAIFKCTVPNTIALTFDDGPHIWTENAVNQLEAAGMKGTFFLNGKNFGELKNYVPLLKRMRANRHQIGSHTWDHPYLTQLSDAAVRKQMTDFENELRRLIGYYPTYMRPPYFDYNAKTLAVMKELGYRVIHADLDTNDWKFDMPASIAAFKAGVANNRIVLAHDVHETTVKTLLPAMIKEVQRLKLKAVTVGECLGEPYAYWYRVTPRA

Target: VdPDA1 (Verticillium dahliae, UniProt G2X9U7)
Assay: biochemical

O=C(NO)c1ccccc1 [Compound 1, benzohydroxamic acid]
inhibition at 100 µM (read-out: Inhibition Rate VdPDA1 Mean): 96.3%
inhibition at 100 µM (read-out: VdPDA1 Inhibition rate (%, mean ± SD, 100 μM)): 96.3 ± 0.4%
